Sequences of proteins named here, by UniProt entry; tags and fusion partners are left off.
UniProt Q460N5, whole entry: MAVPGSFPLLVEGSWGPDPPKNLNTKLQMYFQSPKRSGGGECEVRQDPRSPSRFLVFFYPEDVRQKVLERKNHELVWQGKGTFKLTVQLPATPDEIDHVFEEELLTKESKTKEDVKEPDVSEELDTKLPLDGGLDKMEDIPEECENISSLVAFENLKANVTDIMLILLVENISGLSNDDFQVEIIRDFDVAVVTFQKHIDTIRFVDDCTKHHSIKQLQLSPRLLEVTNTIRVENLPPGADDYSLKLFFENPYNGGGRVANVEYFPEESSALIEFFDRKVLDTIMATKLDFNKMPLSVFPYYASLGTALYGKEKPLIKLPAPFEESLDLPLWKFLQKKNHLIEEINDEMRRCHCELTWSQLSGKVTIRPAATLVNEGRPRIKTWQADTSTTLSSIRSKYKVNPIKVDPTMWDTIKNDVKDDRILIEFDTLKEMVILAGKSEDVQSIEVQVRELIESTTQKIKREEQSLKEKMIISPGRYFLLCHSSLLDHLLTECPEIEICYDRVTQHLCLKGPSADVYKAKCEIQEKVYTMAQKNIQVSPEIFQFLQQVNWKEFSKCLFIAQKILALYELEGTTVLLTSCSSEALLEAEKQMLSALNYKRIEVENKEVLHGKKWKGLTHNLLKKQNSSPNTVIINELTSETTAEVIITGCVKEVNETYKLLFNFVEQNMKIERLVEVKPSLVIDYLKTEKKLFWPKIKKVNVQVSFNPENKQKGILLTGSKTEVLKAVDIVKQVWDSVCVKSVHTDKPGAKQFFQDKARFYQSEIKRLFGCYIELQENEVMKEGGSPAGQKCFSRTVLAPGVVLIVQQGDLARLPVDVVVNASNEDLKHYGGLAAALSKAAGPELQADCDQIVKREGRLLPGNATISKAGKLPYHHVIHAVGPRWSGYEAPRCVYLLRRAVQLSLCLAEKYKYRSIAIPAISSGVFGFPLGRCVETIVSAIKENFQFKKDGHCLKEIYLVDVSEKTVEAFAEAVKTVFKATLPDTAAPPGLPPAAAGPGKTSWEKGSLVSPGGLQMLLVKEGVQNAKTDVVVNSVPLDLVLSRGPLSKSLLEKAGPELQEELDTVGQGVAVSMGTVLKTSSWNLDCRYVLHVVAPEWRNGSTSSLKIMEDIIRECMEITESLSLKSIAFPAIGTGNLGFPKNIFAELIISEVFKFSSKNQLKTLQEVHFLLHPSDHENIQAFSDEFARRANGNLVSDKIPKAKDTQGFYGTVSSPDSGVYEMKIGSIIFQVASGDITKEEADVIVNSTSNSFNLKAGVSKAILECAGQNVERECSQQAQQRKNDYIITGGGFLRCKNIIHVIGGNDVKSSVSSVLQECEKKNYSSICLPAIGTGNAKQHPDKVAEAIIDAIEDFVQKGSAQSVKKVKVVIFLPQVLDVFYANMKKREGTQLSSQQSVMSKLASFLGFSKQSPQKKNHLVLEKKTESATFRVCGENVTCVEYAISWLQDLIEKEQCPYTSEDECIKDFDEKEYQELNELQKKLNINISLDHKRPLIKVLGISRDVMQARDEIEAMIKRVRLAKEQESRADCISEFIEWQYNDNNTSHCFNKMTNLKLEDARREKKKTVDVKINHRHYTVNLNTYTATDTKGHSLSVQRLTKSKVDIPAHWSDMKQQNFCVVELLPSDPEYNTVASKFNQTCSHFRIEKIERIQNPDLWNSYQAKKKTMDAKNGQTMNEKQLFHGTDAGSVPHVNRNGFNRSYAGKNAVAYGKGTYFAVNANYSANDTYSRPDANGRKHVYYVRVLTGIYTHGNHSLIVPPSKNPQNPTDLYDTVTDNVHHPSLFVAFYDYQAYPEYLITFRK

In ChEMBL document CHEMBL5150005, “Discovery of 5-{4-[(7-Ethyl-6-oxo-5,6-dihydro-1,5-naphthyridin-3-yl)methyl]piperazin-1-yl}-N-methylpyridine-2-carboxamide (AZD5305): A PARP1-DNA Trapper with High Selectivity for PARP1 over PARP2 and Other PARPs” (J Med Chem, 2021):

How the values were obtained:
[1] = target: Protein mono-ADP-ribosyltransferase PARP14 (Homo sapiens, UniProt Q460N5)
[2] = target: T1, Protein mono-ADP-ribosyltransferase PARP12 (Homo sapiens, UniProt Q9H0J9)
T1 sequence (Q9H0J9 whole entry): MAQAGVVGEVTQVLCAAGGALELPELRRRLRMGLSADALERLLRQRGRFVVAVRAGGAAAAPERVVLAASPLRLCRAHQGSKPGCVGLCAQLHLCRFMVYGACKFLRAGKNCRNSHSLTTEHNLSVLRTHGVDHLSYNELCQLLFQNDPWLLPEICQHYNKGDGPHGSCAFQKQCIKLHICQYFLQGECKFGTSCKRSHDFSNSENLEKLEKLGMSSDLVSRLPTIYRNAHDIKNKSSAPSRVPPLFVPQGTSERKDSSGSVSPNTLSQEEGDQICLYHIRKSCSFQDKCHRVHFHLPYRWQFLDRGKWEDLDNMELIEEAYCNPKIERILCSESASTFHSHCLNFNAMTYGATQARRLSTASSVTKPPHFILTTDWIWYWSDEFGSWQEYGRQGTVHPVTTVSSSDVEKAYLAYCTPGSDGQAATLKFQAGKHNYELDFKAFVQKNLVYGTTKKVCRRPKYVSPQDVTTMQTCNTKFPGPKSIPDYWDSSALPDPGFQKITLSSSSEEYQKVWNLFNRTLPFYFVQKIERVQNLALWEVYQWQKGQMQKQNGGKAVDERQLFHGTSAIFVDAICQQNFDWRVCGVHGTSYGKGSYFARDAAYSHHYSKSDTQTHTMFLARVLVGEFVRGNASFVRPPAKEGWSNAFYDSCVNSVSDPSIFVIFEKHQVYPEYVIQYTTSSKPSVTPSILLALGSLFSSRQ

[3] = target: T2, Protein mono-ADP-ribosyltransferase PARP16 (Homo sapiens, UniProt Q8N5Y8); experiment: Binding affinity to PARP16 (unknown origin) assessed as apparent dissociation constant; details: read-out: Kd(app)
T2 sequence (Q8N5Y8 whole entry): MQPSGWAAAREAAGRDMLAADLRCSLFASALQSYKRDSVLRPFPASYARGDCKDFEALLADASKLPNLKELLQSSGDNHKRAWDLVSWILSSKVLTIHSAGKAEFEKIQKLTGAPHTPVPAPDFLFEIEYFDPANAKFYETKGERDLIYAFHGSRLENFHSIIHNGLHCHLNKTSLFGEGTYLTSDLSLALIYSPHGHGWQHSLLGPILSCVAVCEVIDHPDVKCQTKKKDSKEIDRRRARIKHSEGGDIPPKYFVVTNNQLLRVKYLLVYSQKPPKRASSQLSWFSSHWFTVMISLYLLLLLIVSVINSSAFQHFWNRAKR

[4] = target: T3, Protein mono-ADP-ribosyltransferase PARP10 (Homo sapiens, UniProt Q53GL7); experiment: Binding affinity to PARP10 (unknown origin) assessed as apparent dissociation constant; details: read-out: Kd(app)
T3 sequence (Q53GL7 whole entry): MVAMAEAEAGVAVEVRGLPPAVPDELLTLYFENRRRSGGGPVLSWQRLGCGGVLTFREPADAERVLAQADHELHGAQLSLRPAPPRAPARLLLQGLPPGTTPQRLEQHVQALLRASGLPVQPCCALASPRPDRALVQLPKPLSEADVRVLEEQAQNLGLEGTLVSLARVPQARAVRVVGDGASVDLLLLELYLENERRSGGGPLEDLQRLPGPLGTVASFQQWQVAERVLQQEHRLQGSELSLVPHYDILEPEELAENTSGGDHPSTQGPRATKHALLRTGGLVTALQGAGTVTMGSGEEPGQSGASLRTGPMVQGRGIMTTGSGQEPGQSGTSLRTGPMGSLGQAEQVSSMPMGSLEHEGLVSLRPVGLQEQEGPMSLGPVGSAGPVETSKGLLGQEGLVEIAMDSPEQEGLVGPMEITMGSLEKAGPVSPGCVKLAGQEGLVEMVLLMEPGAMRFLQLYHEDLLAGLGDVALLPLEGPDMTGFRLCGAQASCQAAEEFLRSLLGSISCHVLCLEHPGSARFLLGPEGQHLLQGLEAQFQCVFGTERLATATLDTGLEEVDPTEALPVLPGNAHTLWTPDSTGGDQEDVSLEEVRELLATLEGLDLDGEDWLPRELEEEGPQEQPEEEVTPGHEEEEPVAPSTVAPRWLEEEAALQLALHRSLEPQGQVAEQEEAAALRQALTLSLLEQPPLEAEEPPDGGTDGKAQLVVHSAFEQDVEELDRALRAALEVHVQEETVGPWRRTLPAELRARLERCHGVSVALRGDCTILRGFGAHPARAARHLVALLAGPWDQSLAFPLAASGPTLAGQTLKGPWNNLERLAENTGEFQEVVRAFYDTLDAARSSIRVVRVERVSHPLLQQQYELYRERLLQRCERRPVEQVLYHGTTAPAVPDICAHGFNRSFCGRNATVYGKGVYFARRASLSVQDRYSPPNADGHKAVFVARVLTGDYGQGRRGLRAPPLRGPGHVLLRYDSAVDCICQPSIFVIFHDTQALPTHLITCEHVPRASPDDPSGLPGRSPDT

[5] = target: T4, Poly [ADP-ribose] polymerase tankyrase-2 (Homo sapiens, UniProt Q9H2K2)
T4 sequence (Q9H2K2 whole entry): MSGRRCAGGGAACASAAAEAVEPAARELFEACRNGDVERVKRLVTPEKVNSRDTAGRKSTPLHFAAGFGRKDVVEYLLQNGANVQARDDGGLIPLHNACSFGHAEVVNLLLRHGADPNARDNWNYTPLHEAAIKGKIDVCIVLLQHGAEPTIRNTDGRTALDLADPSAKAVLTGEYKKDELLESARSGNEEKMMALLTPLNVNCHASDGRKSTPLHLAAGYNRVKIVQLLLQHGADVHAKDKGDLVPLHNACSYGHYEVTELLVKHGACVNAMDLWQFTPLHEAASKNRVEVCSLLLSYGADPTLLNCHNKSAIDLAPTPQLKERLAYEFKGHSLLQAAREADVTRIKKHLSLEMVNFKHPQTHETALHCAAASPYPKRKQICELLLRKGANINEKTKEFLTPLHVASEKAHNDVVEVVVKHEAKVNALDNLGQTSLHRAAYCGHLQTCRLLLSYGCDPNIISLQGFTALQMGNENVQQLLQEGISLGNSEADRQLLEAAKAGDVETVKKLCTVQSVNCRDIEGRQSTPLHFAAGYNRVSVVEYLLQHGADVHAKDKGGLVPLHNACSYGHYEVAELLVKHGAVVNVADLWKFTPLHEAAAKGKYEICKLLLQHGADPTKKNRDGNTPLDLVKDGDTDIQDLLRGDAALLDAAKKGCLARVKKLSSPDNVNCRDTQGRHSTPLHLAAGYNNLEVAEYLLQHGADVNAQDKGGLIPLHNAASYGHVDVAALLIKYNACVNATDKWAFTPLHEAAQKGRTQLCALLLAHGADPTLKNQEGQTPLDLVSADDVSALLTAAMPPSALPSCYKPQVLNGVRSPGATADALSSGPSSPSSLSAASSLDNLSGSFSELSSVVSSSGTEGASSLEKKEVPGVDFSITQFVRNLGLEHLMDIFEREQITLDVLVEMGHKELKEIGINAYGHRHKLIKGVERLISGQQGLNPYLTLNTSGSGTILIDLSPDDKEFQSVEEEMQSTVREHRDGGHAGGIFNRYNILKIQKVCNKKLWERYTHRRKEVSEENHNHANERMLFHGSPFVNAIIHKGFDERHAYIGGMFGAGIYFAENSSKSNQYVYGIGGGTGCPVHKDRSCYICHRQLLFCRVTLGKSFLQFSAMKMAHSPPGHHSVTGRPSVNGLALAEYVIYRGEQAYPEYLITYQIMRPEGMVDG

SMILES | Kd [1] [µM] | Kd [2] [µM] | Kd [3] [µM] | Kd [4] [µM] | Kd [5] [µM]
Cn1ncnc1[C@H]1c2n[nH]c(=O)c3cc(F)cc(c23)N[C@@H]1c1ccc(F)cc1 [TALAZOPARIB] | > 10 |  |  |  | 
CNCc1ccc(-c2[nH]c3cc(F)cc4c3c2CCNC4=O)cc1 [RUCAPARIB] |  | > 10 |  |  | 
C[C@]1(c2nc3c(C(N)=O)cccc3[nH]2)CCCN1 [VELIPARIB] |  |  | > 10 | 6.8 | 
NC(=O)c1cccc2cn(-c3ccc([C@@H]4CCCNC4)cc3)nc12 [NIRAPARIB] | > 10 | > 10 |  |  | > 10
